Assays:
Details in all cases: raw264.7, 24 h
[1] = test system: RAW264.7; experiment: Genotoxicity in mouse RAW264.7 cells assessed as number of micronucleated cells at 0.5 uM measured after 24 hrs by micronucleus test (reference value: 12 to 15)
[2] = test system: RAW264.7; experiment: Genotoxicity in mouse RAW264.7 cells assessed as mitotic index at 0.5 uM measured after 24 hrs by micronucleus test (reference value: 40 to 249)
[3] = test system: RAW264.7; experiment: Genotoxicity in mouse RAW264.7 cells assessed as survival at 0.5 uM measured after 24 hrs by micronucleus test (reference value: 100%)

SMILES: CN(N=O)C(=N)N[N+](=O)[O-]
- Activity [1]: 25
- Activity index [2]: 35
- Survival [3]: 99%

Source: ChEMBL document CHEMBL4680133, “Novel nitroimidazole derivatives evaluated for their trypanocidal, cytotoxic, and genotoxic activities” (Eur J Med Chem, 2020)
